From paper PMC9541285, “Drug‐dependent inhibition of nucleotide hydrolysis in the heterodimeric ABC multidrug transporter PatAB from Streptococcus pneumoniae” (The Febs Journal, 2022)

Tested on: Nc1ncnc2c1ncn2[C@@H]1O[C@H](COP(=O)(O)OP(=O)(O)OP(=O)(O)O)[C@@H](O)[C@H]1O
Assay: purified protein
Details: 10 mM MgCl2, pH 7.0, 30 °C, DDM, no drug

Substance: PatAB (PatA^WTB^WT) (Streptococcus pneumoniae)
- Km: 3.0 ± 0.9 mM
